# Values quoted from earlier work, collected in US20140023701A1, “Method and Composition for Ameliorating the Effects tor a Subject Exposed to Radiation or Other Sources of Oxidative Stress” (priority 2011, published 2014).
# Experiments:
# Human [1] = conditions: tolerable upper intake level, daily intake
# Human [2] = tested on: Human
Substance,Human UL (19-70 yo group) (Human [1]),Human NOAEL (Human [2])
Boron,20 mg,–
thiamine mononitrate,–,50 mg
